For the data set the following is noted: crystals in water.

“tetra-triethanolammonium octamolybdate [TEA-OM]”: the Solubility in water entry is listed as “readily dissolve in water”.

(Values after patent US9375965B2, “Marking compound” (priority 2011, dated 2016).)
